Assay results taken from PMC5431371, “Crystal structure-based discovery of a novel synthesized PARP1 inhibitor (OL-1) with apoptosis-inducing mechanisms in triple-negative breast cancer” (Scientific Reports, 2016).

Sequences of proteins named here, by UniProt entry; tags and fusion partners are left off.
UniProt P09874, whole entry: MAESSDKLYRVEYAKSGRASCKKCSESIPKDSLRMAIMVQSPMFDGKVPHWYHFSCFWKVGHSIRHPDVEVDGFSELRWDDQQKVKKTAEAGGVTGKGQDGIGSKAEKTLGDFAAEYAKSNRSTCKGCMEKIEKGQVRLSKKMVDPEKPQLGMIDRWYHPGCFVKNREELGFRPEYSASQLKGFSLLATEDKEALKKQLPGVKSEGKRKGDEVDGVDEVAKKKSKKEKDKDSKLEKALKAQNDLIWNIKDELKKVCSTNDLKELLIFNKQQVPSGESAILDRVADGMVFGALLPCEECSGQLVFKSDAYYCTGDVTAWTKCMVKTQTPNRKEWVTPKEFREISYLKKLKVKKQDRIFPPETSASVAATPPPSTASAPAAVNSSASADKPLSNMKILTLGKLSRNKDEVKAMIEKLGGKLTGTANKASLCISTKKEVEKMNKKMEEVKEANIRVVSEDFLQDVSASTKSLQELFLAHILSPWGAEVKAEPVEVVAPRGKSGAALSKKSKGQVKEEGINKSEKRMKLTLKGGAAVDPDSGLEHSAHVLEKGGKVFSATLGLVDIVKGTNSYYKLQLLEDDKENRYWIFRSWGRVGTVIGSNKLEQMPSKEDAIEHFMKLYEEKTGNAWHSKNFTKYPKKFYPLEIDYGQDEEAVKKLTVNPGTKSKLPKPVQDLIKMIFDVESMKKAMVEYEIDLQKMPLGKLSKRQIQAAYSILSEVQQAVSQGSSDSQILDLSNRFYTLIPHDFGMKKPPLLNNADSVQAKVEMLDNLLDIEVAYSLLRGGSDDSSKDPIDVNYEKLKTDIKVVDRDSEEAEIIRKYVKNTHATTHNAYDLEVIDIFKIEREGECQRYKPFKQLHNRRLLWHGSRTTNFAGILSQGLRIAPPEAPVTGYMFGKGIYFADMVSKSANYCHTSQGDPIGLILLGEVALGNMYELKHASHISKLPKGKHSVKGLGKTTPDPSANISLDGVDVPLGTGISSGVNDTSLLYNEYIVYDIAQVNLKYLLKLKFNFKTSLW

Tests used:
[1] = tested on: MDA-MB-436 cells; test: Cell viability assay (MTT); settings: read-out: Anti-cell viability (IC50, μM) MDA-MB-436; MDA-MB-436 cells (BRAC1 mutant breast cancer); mean ± SD, at least three independent experiments
Method: Breast cancer cells including MCF-7, MDA-MB-231, MDA-MB-436 and MDA-MB-468 cells were obtained from American Type Culture Collection (ATCC, Manassas, VA, USA). The cells were fed with Leibovitz’s L-15 medium (MDA-MB-231, MDA-MB-436 and MDA-MB-468 cells) or DMEM medium (MCF-7 cells) containing 10% Fetal Bovine Serum, 100 μg/mL streptomycin and 100 U/mL penicillin. MDA-MB-231, MDA-MB-436 and MDA-MB-468 cells were cultured in humidified cell incubator with atmosphere at 37 °C while MCF-7 cells was cultured with 5% CO2 at 37 °C.
5 × 10^3 cells were seeded into each well in 96-well microplates and cultured for 24 h. Then the cells were exposed to different concentrations of OL-1 for 24 h. After drug treatment, the cell viabilities were detected by MTT assay.

[2] = target: Recombinant Human PARP1 (Homo sapiens, UniProt P09874); test: PARP1 enzymatic inhibition assay (Universal Chemiluminescent PARP Assay Kit); format: biochemical; settings: read-out: Enzymatic inhibition (IC50, μM) PARP1, mean ± SD, at least three independent experiments

SMILES | IC50 [1] | IC50 [2]
CCCCNC(=O)Cc1ccc2c(c1)C(=CCCN(C)C)c1ccccc1CO2 | – | > 20 µM
CC(C)OC(=O)Cc1ccc2c(c1)C(=CCCN(C)C)c1ccccc1CO2 | – | > 20 µM
CCN(CC)C(=O)Cc1ccc2c(c1)C(=CCCN(C)C)c1ccccc1CO2 | > 20 µM | 18.9 µM

Compounds with a lower IC50 [2], results first:

IC50 [1] | IC50 [2] | SMILES
1.32 µM | 0.724 µM | CNC(=O)Cc1ccc2c(c1)C(=CCCN(C)C)c1ccccc1CO2
1.94 µM | 0.344 µM | CN(C)CCC=C1c2ccccc2COc2ccc(CC(N)=O)cc21
4.22 µM | 1.26 µM | CCNC(=O)Cc1ccc2c(c1)C(=CCCN(C)C)c1ccccc1CO2
7.42 µM | 4.45 µM | CN(C)CCC=C1c2ccccc2COc2ccc(CC(=O)N(C)C)cc21
19.3 µM | 13.5 µM | CCCNC(=O)Cc1ccc2c(c1)C(=CCCN(C)C)c1ccccc1CO2
